Source: paper PMC6982817, “Substituted N-(Pyrazin-2-yl)benzenesulfonamides; Synthesis, Anti-Infective Evaluation, Cytotoxicity, and In Silico Studies” (Molecules, 2019)
≈ marks a conversion by molar mass, not a printed value. Read-outs that look alike come from different tables or passages of the source.

Experiments:
Assay type in all cases: cell-based
[1] = tested on: M. kansasii CNCTC My 235/80 (ATCC 12478); assay: Antimycobacterial microplate alamar blue assay, M. kansasii; details: Mycobacterium kansasii, ATCC12478, pH 6.6, read-out: Antimycobacterial Activity MIC M. kansasii
[2] = tested on: Mycobacterium smegmatis DSM 43465 (ATCC 607); assay: Antimycobacterial microdilution assay, M. smegmatis; details: Mycolicibacterium smegmatis
[3] = tested on: M. avium ssp. avium CNCTC My 80/72 (ATCC 15769); assay: Antimycobacterial microplate alamar blue assay, M. avium; details: Mycobacterium avium, ATCC15769, pH 6.6, read-out: Antimycobacterial Activity MIC M. avium
[4] = tested on: Mycobacterium aurum DSM 43999 (ATCC 23366); assay: Antimycobacterial microdilution assay, M. aurum; details: Mycolicibacterium aurum, 72 h, read-out: Antimycobacterial Activity MIC M. aurum

In the case of NS(=O)(=O)c1ccccc1 [Benzenesulfonamide, benzenesulfonamide], the MIC [1] is reported as > 100 µg/mL, the MIC ([2]; 48 h, read-out: Antimycobacterial Activity MIC M. smeg) is reported as 31.2 µg/mL and the MIC ([2]; read-out: MIC M. smegmatis in μM) is reported as 199 µM. For the same compound, the MIC [3] was > 100 µg/mL and the MIC [4] was 125 µg/mL (≈ 795 µM).
